# Marks after values point to notes of the source that are not given here.
# Test system: KK-Ay diabetic mice
# Conditions: 1.0 mg/kg-day by gavage, three days
smiles,measurement,setting,value
CN(CCOc1ccc(CC2SC(=O)NC2=O)cc1)c1ccccn1 (centres unmarked) [Rosiglitazone],Glucose,non-fasting serum,80.3# % Pretreatment
same,Insulin,serum,88.7 % Pretreatment

# From patent EP2737897A2, “Anti-inflammatory botanical products for the treatment of metabolic syndrome and diabetes” (Metaproteomics, LLC, priority 2005, dated 2007)
